Data as given in PubChem BioAssay AID1851 (National Center for Advancing Translational Sciences (NCATS), 2009).
Most of the hits are listed elsewhere, so they are rarer here than in the full data. Records with an inconclusive call do not appear. Active and inactive are the calls of the source. The call rests on the fitted dose curve; in most records, active means well fitted curve in the direction sought with a large enough effect; inconclusive means small, poorly fitted or top-dose-only effect, or effect the other way; inactive means no such curve, though single readings can be large or run the other way.

Sequences of proteins named here, by UniProt entry; tags and fusion partners are left off.
UniProt P08684, whole entry, looked up: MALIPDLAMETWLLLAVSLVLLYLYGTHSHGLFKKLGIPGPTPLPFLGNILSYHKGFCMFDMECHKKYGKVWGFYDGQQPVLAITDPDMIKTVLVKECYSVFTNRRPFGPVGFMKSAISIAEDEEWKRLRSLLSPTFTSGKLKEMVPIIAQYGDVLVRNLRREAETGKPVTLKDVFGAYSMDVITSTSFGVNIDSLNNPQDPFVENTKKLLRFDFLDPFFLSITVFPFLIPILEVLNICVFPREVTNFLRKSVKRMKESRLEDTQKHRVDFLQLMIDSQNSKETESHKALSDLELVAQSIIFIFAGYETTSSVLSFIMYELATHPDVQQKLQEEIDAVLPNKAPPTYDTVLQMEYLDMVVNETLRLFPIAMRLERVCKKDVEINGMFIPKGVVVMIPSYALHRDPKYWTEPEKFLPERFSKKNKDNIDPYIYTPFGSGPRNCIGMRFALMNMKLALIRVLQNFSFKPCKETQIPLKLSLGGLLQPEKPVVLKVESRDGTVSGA

What follows are compounds tested against Cytochrome P450 3A4 (Homo sapiens) (UniProt P08684) (assay: Cytochrome panel assay with activity outcomes). Details: recombinant CYP, pro-luciferin dealkylation, luminescence, p450-cyp3a4; at 57.1 µM (top of the series).
On the % scale 0 is the no-effect control and ±100 the full control effect.

Row | SMILES | activity, negative = inhibition
1 | N#Cc1ccc(CN2CCC3(CC2)CCN(C(=O)c2csnn2)CC3)cc1 | inactive: -11.8%
2 | CC(C)NC(=O)N1CC[C@@]2(CCCN(C(=O)c3cccc(F)c3)C2)C1 | inactive: -14.3%
3 | N#CCCn1c(=O)c(-c2ccc(Cl)cc2)nc2cnc(OCc3ccccc3)nc21 | inactive: 22.1%
4 | Cn1c(=O)c(-c2cccs2)nc2cnc(OCc3ccccc3)nc21 | inactive: -7.14%
